In the library only some 2.8% were active in any assay of this set; here they are far more common.
MITF act: MITF TRPM1 promoter activation in melanoma cells; AID 588334; activation, % at 12.5 µM; 300,000 compounds, 0.75% hits; SK-MEL-5 TRPM1-promoter luciferase, 24 h; % of positive control, neutral wells = 0;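 active = mean activation of at least 80% with every replicate also reaching 80%; inconclusive = mean reaches 80% but some replicate falls short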
PglD DTNB: blocks C. jejuni PglD acetyltransferase activity. AID 602405. 360,000 compounds, 0.098% hits. purified PglD enzyme, DTNB colorimetric CoA detection. inhibition, % at 12.5 µM; in the data active = inhibition above about 16%, passing the limit was not always enough; inconclusive = no clear call, values can overlap the other calls
esBAF inh: SWI/SNF esBAF complex inhibition; mouse ES cells, Bmi1-luciferase knock-in reporter, 24 h; 100% = twice the neutral-well signal; 350,000 compounds, 2% hits; reporter increase, % at 12.5 µM; in the data active = activation above about 40%; inconclusive = no clear call, values can overlap the other calls;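 note: a rise in the Bmi1 reporter signal indicates esBAF inhibition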
miR122 inh: inhibitors of miR-122 in Huh7 cells; Huh7 miR-122 Renilla luciferase sensor, 48 h; neutral wells = 0, positive control = 100; activation (reporter increase), % at 12.5 µM; 340,000 compounds, 0.3% hits; AID 602342;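 active = mean replicate activation score at least 90 and every replicate individually at or above 90; inconclusive = only one of the two criteria met; inactive = neither criterion met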;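 note: higher luciferase means less miR-122 activity so hits act as miR-122 inhibitors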
Wnt bcat act: Wnt/beta-catenin pathway activation | Wnt/beta-catenin reporter cell assay, activator, plate reader | activation, % at 9.35 µM | 300,000 compounds, 1.2% hits | AID 743398; in the data active = activation above about 30%, passing the limit was not always enough; inconclusive = no clear call, values can overlap the other calls
Yeast UUG start: modulators of yeast start codon fidelity, primary screen, whole organism, S. cerevisiae, single point, plate reader; S. cerevisiae UUG-firefly luciferase reporter, luminescence/redox ratio; activity score, % at 18.7 µM; 0.13% of 350,000 active; AID 602363, 2012;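 active = replicate mean at a twofold rise or more, about +100% in these data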;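 also: firefly luciferase made from a UUG start codon reports start codon fidelity; reporter light over untreated wells divided by growth signal over untreated wells; some hits fall short of that in this replicate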
Numbers stand for hits.

Cc1ccc(S(=O)(=O)Nc2ccc3c(c2)C(=O)N([C@H](C)CO)C[C@H](C)[C@@H](CN(C)C(=O)NC2CCCCC2)OCCCC[C@H](C)O3)cc1 was read as PglD DTNB inactive, esBAF inh inactive, miR122 inh inactive and Yeast UUG start inactive.
Screening Cc1ccc(NC(=S)NC(C)CCc2ccccc2)cc1C (stereo unspecified) returned MITF act inactive and Wnt bcat act inactive.
Cc1cccc(C)c1NC(=S)NC(C)CCc1ccccc1 (stereo unspecified) was read as MITF act inactive, PglD DTNB inactive, esBAF inh inactive, miR122 inh 100, Wnt bcat act inactive and Yeast UUG start inactive.
Screening O=C1CCC(c2ccc3ccccc3c2)O1 (stereo unspecified) returned MITF act inactive, PglD DTNB inactive, esBAF inh inactive, miR122 inh inactive, Wnt bcat act inactive and Yeast UUG start inactive.
Screening c1ccc2cc(C3OCC4(CCCC4)CO3)ccc2c1 returned PglD DTNB inactive, esBAF inh 71, miR122 inh inactive, Wnt bcat act inactive and Yeast UUG start inactive.
For Cc1cccc(NC(=O)Oc2ccc(Cl)c3cccnc23)c1 the results were PglD DTNB inactive, esBAF inh 51, Wnt bcat act inactive and Yeast UUG start inactive.
Screening C[C@@H](NC(=O)C[C@H]1C[C@@H]2c3cc(NC(=O)c4ccc5c(c4)OCO5)ccc3O[C@@H]2[C@H](CO)O1)c1ccccc1 returned PglD DTNB inactive, esBAF inh inactive and miR122 inh inactive.
Cc1n[nH]c(=O)n1-c1ccc(OCc2ccccc2)cc1 was read as MITF act inactive, PglD DTNB inactive, esBAF inh 44, miR122 inh inactive, Wnt bcat act inactive and Yeast UUG start inactive.
`c1ccc(N2CCN(c3nc4cc5c(cc4s3)OCO5)CC2)cc1` gave MITF act inactive, PglD DTNB inactive, esBAF inh 49, miR122 inh inactive, Wnt bcat act inactive and Yeast UUG start inactive.
c1c2c(cc3sc(N4CCCCC4)nc13)OCO2 was read as MITF act inactive, PglD DTNB inactive, miR122 inh inactive, Wnt bcat act 54 and Yeast UUG start inactive.
Screening c1c2c(cc3sc(N4CCOCC4)nc13)OCO2 returned PglD DTNB inactive, esBAF inh inactive, miR122 inh inactive and Yeast UUG start inactive.
For COCC(=O)Nc1ccc2c(c1)OC[C@H](C)N(Cc1ccccc1F)C[C@@H](C)[C@H](OC)CN(C)C2=O the results were PglD DTNB inactive, esBAF inh inactive, miR122 inh inactive and Yeast UUG start inactive.
Cc1ccc(S(=O)(=O)Nc2ccc3c(c2)C(=O)N([C@H](C)CO)C[C@@H](C)[C@@H](CN(C)C)O3)cc1 was read as PglD DTNB inactive, esBAF inh inactive, miR122 inh inactive and Yeast UUG start inactive.
For CCCNC(=O)C[C@@H]1CC[C@H]2[C@@H](COc3ccc(NC(=O)c4cccc(F)c4)cc3C(=O)N2C)O1 the results were PglD DTNB inactive, esBAF inh inactive, miR122 inh inactive and Yeast UUG start inactive.
COc1ccc(CNC(=O)CCCn2nc(C)c([N+](=O)[O-])c2C)cc1OC was read as MITF act inactive and Wnt bcat act 38.
Cc1nn(CC(=O)NCc2ccccc2)c(C)c1[N+](=O)[O-] was read as MITF act inactive, PglD DTNB inactive, esBAF inh inactive, miR122 inh inactive and Yeast UUG start inactive.
`COC(=O)CNC(=O)Cn1nc(C)c([N+](=O)[O-])c1C` gave MITF act inactive and Wnt bcat act 38.
`Cc1cccc(S(=O)(=O)N2C[C@H](O)COC[C@@H]3O[C@@H](CC(=O)N4CCN(C)CC4)CC[C@H]32)c1` gave PglD DTNB inactive, esBAF inh inactive, miR122 inh inactive and Yeast UUG start inactive.
O=C(CCS(=O)(=O)c1ccccc1Cl)NC1CCCCCC1 was read as MITF act inactive, PglD DTNB inactive, esBAF inh 49, Wnt bcat act inactive and Yeast UUG start inactive.
`COc1ccc(S(=O)(=O)CCC(=O)NC2CCCCC2)cc1` gave MITF act inactive, PglD DTNB inactive, esBAF inh inactive, miR122 inh inactive, Wnt bcat act inactive and Yeast UUG start inactive.
For O=C(CCS(=O)(=O)c1ccccc1)NC1CCCCC1 the results were MITF act 105, PglD DTNB inactive, miR122 inh inactive, Wnt bcat act inactive and Yeast UUG start inactive.
O=C(CCS(=O)(=O)c1cccc2nsnc12)NC1CCCCC1 was read as MITF act inactive, PglD DTNB inactive, esBAF inh inactive, miR122 inh inactive and Yeast UUG start inactive.
`COc1ccc(S(=O)(=O)N2C[C@@H](O)COC[C@H]3O[C@H](CC(=O)NCCN4CCCCC4)CC[C@@H]32)cc1` gave PglD DTNB inactive, esBAF inh inactive and miR122 inh inactive.
OCCC1CN(Cc2nc(-c3ccccc3)cs2)CCN1C1CCCC1 (stereo unspecified) was read as MITF act inactive, esBAF inh inactive, miR122 inh inactive and Wnt bcat act 34.
Screening OCCC1CN(Cc2nc(-c3ccccc3)cs2)CCN1Cc1ccc(F)cc1 (stereo unspecified) returned MITF act inactive, PglD DTNB inactive, esBAF inh inactive, Wnt bcat act inactive and Yeast UUG start inactive.
Screening O=C(Nc1ccccc1F)c1cc2nc(C(F)F)cc(C(F)F)n2n1 returned MITF act inactive, PglD DTNB inactive, esBAF inh 58, miR122 inh inactive and Yeast UUG start inactive.
For O=C1c2ccccc2C(=O)N1OCCOCCOCCON1C(=O)c2ccccc2C1=O the results were MITF act inactive, PglD DTNB inactive, esBAF inh inactive, miR122 inh inactive, Wnt bcat act 45 and Yeast UUG start inactive.
`O=[N+]([O-])c1ccccc1-c1ccc(C(=S)N2CCCC2)o1` gave MITF act inactive, PglD DTNB inactive, esBAF inh 44, miR122 inh inactive, Wnt bcat act inactive and Yeast UUG start inactive.
`CC1CCCN(C(=O)c2ccc(-c3ccccc3Cl)o2)C1` (stereo unspecified) gave MITF act 140, PglD DTNB inactive, esBAF inh 77, miR122 inh inactive, Wnt bcat act 34 and Yeast UUG start inactive.
`CC(C)(CNC(=O)c1ccc(-c2ccccc2Cl)o1)N1CCOCC1` gave MITF act inactive, PglD DTNB inactive, esBAF inh 71, miR122 inh inactive, Wnt bcat act inactive and Yeast UUG start inactive.
O=C(c1ccc(-c2ccccc2Cl)o1)N1CCCCCCC1 was read as MITF act inconclusive, PglD DTNB inactive, esBAF inh 54, miR122 inh inactive, Wnt bcat act 40 and Yeast UUG start inactive.
O=C(c1ccc(-c2ccc([N+](=O)[O-])cc2)o1)N1CCCCCCC1 was read as MITF act inactive, PglD DTNB inactive, esBAF inh inactive, miR122 inh inactive, Wnt bcat act inactive and Yeast UUG start inactive.

From PubChem BioAssay
